Assay results taken from patent EP0072531A1, “Derivatives of cyclophosphamide, process for their preparation and their use” (dated 1983).

Test: cytostatic efficacy (ED50) compared with cyclophosphamide
Details: compared with Cyclophosphamid; no model, species or route given

## O=P1(N(CCCl)CCCl)NCC(O)CO1 (stereo not shown)
  ED50: der des Cyclophosphamids entspricht
